The values below come from paper PMC11650849, “Brain endothelial permeability, transport, and flow assessed over 10 orders of magnitude using the in situ brain perfusion technique” (Fluids and Barriers of the CNS, 2024).

The chains behind the UniProt entries cited, without tags or fusion partners. Where a name states a change or a piece, a line headed by the entry shows the natural chain unless it says otherwise.
UniProt Q63016: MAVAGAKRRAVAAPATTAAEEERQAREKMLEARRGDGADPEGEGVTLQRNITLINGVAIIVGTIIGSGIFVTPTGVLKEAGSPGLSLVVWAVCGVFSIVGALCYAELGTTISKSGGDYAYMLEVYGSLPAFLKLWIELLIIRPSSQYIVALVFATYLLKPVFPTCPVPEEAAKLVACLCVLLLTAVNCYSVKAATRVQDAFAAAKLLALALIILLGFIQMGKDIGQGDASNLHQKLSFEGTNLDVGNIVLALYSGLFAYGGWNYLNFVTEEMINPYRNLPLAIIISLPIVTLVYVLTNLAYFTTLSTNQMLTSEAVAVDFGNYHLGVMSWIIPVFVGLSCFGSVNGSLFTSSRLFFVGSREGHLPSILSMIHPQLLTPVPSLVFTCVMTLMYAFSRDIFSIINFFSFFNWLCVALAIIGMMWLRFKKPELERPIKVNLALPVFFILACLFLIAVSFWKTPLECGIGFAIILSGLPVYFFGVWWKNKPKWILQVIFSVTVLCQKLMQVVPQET

Structures are written as SMILES.

The target in the data set is Lat-1 (Rattus norvegicus, UniProt Q63016). The settings on record: LAT1 substrates, tracer concentration.

In the case of `N[C@@H](Cc1ccc(N(CCCl)CCCl)cc1)C(=O)O` [Melphalan (para)], the LogPS was −2.98. Moreover, the PS (perfusion 15-30 s) is 0.00104 mL/s/g.
